Laboratory results from patent US6525059B1, “Substituted pyrazoles as p38 kinase inhibitors” (G. D. Searle & Company, priority 1998, dated 2003).

Tested on: TNF-α
Assay: LPS stimulation of TNF production by U937 cells
Format: cell-based
Settings: read-out: U937 Cell IC50, LPS-stimulated human U937 cells

Compound: O=C(NCc1[nH]nc(-c2ccc(F)cc2)c1-c1ccncc1)N1CCOCC1
- IC50: > 1 µM

Compound: CCN(CC)C(=O)NCc1[nH]nc(-c2ccc(F)cc2)c1-c1ccncc1
- IC50: > 1 µM
